For assay [1], the system named is alternative pathway residual hemolytic activity. The assay can be described thus: Rabbit erythrocyte lysis assay with eculizumab-treated PNH patient plasma/serum. The assay is classed as cell-based, human. Particulars: rabbit erythrocytes. The method, then: Inhibition of complement activity was evaluated by hemolysis of rabbit or PNH patient erythrocytes, and by measuring generation of C5a and C5b-9 by ELISA. […] Inhibition of C5 binding to the alternative pathway (AP) C5 convertase was measured by SPR.
Following incubation, the plate was centrifuged at 1000×g and 100 μL of supernatant was transferred to a new 96-well clear assay plate and the absorbance at 412 nm was measured. Absorbance values were normalized to a plate control of 25% (final concentration) normal human sera (#NHS; Complement Technology Inc., Tyler, Tex.) which was set to 100% hemolysis.

Assay [2] concerns patients with PNH. Particulars: UK PNH National Service Reports; cited from earlier work.
Assay [3] has as its system PNH patient erythrocytes. Briefly: Hemolysis of PNH patient erythrocytes in acidified donor-matched serum. The assay is classed as cell-based, human. Particulars: 50% acidified donor-matched serum, 18 hours at 37° C.; two patients. The method, then:
Erythrocytes were collected from PNH patient blood samples by centrifugation at 1000×g for 3 minutes to pellet, and washed 3 times with Alsever's solution. The cell pellet was resuspended 1:2 in GVB^++ buffer (Complement Technology, Tyler, Tex.). Donor-matched normal human sera was acidified to pH 6.4 by addition of HCl. PNH patient erythrocytes (2.5% v/v) were incubated in a clear 96-well assay plate with 50% acidified donor-matched serum and indicated concentrations of compounds for 18 hours at 37° C. Cells were then centrifuged at 1000×g for 3 minutes and 100 μl of the supernatant transferred to a separate clear 96-well assay plate for detection of absorbance at 412 nm.

B1: eculizumab: a C5 inhibitor monoclonal antibody, approved treatment for PNH (Alexion Pharmaceuticals) (antibody, chains of the INN, looked up)
heavy: QVQLVQSGAEVKKPGASVKVSCKASGYIFSNYWIQWVRQAPGQGLEWMGEILPGSGSTEYTENFKDRVTMTRDTSTSTVYMELSSLRSEDTAVYYCARYFFGSSPNWYFDVWGQGTLVTVSSASTKGPSVFPLAPCSRSTSESTAALGCLVKDYFPEPVTVSWNSGALTSGVHTFPAVLQSSGLYSLSSVVTVPSSNFGTQTYTCNVDHKPSNTKVDKTVERKCCVECPPCPAPPVAGPSVFLFPPKPKDTLMISRTPEVTCVVVDVSQEDPEVQFNWYVDGVEVHNAKTKPREEQFNSTYRVVSVLTVLHQDWLNGKEYKCKVSNKGLPSSIEKTISKAKGQPREPQVYTLPPSQEEMTKNQVSLTCLVKGFYPSDIAVEWESNGQPENNYKTTPPVLDSDGSFFLYSRLTVDKSRWQEGNVFSCSVMHEALHNHYTQKSLSLSLG
light: DIQMTQSPSSLSASVGDRVTITCGASENIYGALNWYQQKPGKAPKLLIYGATNLADGVPSRFSGSGSGTDFTLTISSLQPEDFATYYCQNVLNTPLTFGQGTKVEIKRTVAAPSVFIFPPSDEQLKSGTASVVCLLNNFYPREAKVQWKVDNALQSGNSQESVTEQDSKDSTYSLSSTLTLSKADYEKHKVYACEVTHQGLSSPVTKSFNRGEC
B1: the “effect on residual hemolytic activity” value in assay [1] is “only modest inhibition of hemolysis”. Besides, the “patients requiring non-standard doses due to breakthrough hemolysis at the standard dose” value in assay [2] was around 22%. In addition, the “hemolysis of PNH patient erythrocytes” value in assay [3] is listed as “partially inhibits hemolysis”.

The values are drawn from patent US11723949B2, “Modulators of complement activity” (Ra Pharmaceuticals, Inc., priority 2016, dated 2023).
